molecular target: human NaV1.7 (Homo sapiens (Human), UniProt Q15858); assay: Patch voltage clamp electrophysiology assay, NaV1.7; format: cell-based; settings: inactivated state; HEK-293 cells stably expressing NaV1.7 with β1 subunit; held at −60 mV; read-out: Human 1.7 EP (IC50 μM)

Protein sequences, listed by entry. Tags and fused reporters are not part of them. Chains listed by the source or under a name are the forms on record and can include a tag or linker.
UniProt Q15858, other isoform, or with tags, fused parts or gaps: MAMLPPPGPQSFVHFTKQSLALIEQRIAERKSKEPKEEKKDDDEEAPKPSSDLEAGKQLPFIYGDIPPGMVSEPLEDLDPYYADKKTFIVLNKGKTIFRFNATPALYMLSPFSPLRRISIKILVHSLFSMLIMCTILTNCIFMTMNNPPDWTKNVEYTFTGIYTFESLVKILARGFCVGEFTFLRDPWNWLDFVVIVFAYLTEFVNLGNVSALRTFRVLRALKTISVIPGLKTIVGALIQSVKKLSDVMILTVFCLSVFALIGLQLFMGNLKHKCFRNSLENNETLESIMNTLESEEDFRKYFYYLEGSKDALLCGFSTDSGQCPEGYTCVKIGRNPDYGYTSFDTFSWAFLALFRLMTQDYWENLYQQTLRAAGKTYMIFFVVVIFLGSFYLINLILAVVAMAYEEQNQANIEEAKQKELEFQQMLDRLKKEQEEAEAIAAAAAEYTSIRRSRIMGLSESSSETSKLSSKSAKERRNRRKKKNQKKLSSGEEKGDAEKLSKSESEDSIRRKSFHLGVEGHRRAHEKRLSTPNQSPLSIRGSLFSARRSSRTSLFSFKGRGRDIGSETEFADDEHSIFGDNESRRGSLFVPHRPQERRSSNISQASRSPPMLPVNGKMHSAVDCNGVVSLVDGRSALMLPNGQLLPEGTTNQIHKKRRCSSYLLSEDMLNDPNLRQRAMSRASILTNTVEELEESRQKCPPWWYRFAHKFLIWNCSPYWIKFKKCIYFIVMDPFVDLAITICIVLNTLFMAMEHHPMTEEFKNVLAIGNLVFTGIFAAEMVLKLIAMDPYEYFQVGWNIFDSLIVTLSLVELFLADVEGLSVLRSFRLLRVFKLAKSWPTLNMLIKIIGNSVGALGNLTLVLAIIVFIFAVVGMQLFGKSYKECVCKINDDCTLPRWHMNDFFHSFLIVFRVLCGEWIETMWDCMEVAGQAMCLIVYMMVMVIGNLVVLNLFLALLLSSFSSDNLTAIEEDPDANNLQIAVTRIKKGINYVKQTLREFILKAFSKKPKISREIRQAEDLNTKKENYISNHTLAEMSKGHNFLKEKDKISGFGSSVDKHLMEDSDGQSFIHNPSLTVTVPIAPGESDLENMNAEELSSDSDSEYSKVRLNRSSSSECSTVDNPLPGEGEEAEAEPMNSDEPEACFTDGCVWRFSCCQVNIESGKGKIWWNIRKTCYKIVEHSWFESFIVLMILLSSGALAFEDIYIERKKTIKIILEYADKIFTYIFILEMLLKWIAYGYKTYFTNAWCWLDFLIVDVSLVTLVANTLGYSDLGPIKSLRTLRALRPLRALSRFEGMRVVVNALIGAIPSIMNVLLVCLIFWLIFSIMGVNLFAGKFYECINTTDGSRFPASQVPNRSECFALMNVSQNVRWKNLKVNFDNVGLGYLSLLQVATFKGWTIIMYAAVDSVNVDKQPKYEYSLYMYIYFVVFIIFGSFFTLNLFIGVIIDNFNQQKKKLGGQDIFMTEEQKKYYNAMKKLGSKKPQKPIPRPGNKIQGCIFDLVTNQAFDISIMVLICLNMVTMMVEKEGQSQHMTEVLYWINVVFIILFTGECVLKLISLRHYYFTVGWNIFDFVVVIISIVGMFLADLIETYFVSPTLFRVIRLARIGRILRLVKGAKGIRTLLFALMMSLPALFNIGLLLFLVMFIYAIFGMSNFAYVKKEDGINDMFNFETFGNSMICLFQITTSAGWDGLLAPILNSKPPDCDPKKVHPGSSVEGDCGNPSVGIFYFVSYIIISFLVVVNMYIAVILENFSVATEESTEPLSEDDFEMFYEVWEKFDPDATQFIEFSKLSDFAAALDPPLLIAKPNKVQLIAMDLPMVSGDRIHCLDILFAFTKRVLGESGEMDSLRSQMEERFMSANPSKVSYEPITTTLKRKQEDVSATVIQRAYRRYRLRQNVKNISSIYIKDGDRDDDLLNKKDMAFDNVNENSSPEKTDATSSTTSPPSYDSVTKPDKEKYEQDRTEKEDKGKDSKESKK

Row | IC50 | Substance
1 | 0.0377 µM | 5-chloro-2-fluoro-N-(methylsulfonyl)-4-(((1S,2R,4S)-1,7,7-trimethylbicyclo[2.2.1]heptan-2-yl)oxy)benzamide [Example 14]
2 | 0.0312 µM | 5-chloro-4-((-3, 5-dimethyladamantan-1-yl)methoxy)-2-fluoro-N-(methylsulfonyl)benzamide [Example 16]
3 | 0.0563 µM | 5-chloro-2-fluoro-N-(methylsulfonyl)-4-((4-pentylbicyclo-[2.2.2]octan-1-yl)methoxy)benzamide [Example 20]
4 | 0.0052 µM | 5-chloro-2-fluoro-N-(methylsulfonyl)-4-(((1S,2S,3S,5R)-2,6,6-trimethylbicyclo[3.1.1]heptan-3-yl)oxy)benzamide [Example 9]
5 | 0.0201 µM | 4-(2-(adamantan-1-yl)ethoxy)-5-chloro-2-fluoro-N-(methylsulfonyl)benzamide [Example 5]
6 | 0.0087 µM | 5-chloro-2-fluoro-4-((3-fluoroadamantan-1-yl)methoxy)-N-(methylsulfonyl)benzamide [Example 11]
7 | 0.0014 µM | 5-chloro-2-fluoro-4-(((1S,2R,5S)-2-isopropyl-5-methylcyclohexyl)oxy)-N-(methylsulfonyl)benzamide [Example 148]
8 | 0.0003 µM | 5-chloro-4-(((1R,5S)-6,6-dimethylbicyclo[3.1.1]hept-2-en-2-yl)methoxy)-2-fluoro-N-(methylsulfonyl)benzamide [Example 60]
9 | 0.0304 µM | 5-chloro-4-((4,4-difluoroadamantan-1-yl)methoxy)-N-(N,N-dimethylsulfamoyl)-2-fluorobenzamide [Example 135]
10 | 0.0847 µM | 4-(adamantan-1-ylmethoxy)-5-cyclopropyl-2-fluoro-N-((3-hydroxyazetidin-1-yl)sulfonyl)benzamide [Example 106]
11 | 0.356 µM | 5-chloro-2-fluoro-4-((3-methoxyadamantan-1-yl)methoxy)-N-(methylsulfonyl)benzamide [Example 18]
12 | 0.0043 µM | 6-(adamantan-1-ylmethoxy)-5-cyclopropyl-N-(methylsulfonyl)nicotinamide [Example 150]

Row | Substance | IC50
13 | 5-chloro-4-(2-cyclopropylethoxy)-2-fluoro-N-(methylsulfonyl)benzamide [Example 10] | 0.0082 µM
14 | 4-(adamantan-1-ylmethoxy)-5-chloro-2-fluoro-N-(methylsulfonyl)benzamide [Example 8] | 0.0038 µM

Source: US9771376B2 (GENENTECH, INC., priority 2000, dated 2017)
